Results on 1 molecule are retold here after ChEMBL document CHEMBL3714716, “Modulators of the relaxin receptor 1” (2015).

In assay [1] the target is T1, Relaxin receptor 1 (Mus musculus) (UniProt Q6R6I7).
T1 sequence (whole entry): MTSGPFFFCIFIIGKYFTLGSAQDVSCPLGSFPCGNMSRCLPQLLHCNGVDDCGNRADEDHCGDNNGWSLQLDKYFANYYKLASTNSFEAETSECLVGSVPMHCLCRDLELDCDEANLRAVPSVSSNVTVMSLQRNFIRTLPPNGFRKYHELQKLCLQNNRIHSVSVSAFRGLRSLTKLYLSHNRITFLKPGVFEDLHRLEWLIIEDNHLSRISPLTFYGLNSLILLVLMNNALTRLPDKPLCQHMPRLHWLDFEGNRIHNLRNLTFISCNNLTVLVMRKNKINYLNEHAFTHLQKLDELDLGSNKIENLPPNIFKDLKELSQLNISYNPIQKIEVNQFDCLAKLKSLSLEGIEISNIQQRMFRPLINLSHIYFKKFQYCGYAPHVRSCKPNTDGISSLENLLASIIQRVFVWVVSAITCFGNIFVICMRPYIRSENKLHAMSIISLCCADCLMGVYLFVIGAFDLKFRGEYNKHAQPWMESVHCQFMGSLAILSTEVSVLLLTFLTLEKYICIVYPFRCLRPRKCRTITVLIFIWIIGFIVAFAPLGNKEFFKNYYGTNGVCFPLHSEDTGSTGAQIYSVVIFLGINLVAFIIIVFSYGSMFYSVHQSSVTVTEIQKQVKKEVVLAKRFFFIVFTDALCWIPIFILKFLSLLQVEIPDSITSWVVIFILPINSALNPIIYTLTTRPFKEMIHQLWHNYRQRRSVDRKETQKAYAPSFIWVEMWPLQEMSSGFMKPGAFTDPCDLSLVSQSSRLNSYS
Put plainly: Agonist activity at mouse RXFP1 receptor expressed in HEK293 cells assessed as stimulation of cAMP production at 66 uM incubated for 30 mins by TR-FRET based HTRF assay relative to relaxin. In kind it is functional, cell-based. Details: scale not given: the % may be the effect or the level left. Background: Cyclic AMP is a second messenger, typically raised through Gs and lowered through Gi signalling.

The target in assay [2] is T1, Relaxin receptor 1 (Mus musculus). Nature of the assay: Agonist activity at mouse RXFP1 receptor M10 Ile646Val and Leu647Val mutant expressed in HEK293 cells assessed as stimulation of cAMP production at 66 uM incubated for 30 mins by TR-FRET based HTRF assay relative to relaxin. In kind it is functional, cell-based. Also noted: scale not given: the % may be the effect or the level left.

Consider `CC(C)Oc1ccccc1C(=O)Nc1ccccc1C(=O)Nc1cccc(S(=O)(=O)C(F)(F)F)c1`, for which the Activity in assay [1] and in assay [2] was 0% each time.
